The values below come from US20180031580A1, “USE OF IGF-1 AS PROGNOSTIC FACTOR IN CALCIFICATION OF AORTIC VALVES” (THE ASAN FOUNDATION, priority 2015, published 2018).

Sequences of proteins named here, by UniProt entry; tags and fusion partners are left off. A change or cut given only in a name is not applied to a line headed by its entry.
UniProt P28843: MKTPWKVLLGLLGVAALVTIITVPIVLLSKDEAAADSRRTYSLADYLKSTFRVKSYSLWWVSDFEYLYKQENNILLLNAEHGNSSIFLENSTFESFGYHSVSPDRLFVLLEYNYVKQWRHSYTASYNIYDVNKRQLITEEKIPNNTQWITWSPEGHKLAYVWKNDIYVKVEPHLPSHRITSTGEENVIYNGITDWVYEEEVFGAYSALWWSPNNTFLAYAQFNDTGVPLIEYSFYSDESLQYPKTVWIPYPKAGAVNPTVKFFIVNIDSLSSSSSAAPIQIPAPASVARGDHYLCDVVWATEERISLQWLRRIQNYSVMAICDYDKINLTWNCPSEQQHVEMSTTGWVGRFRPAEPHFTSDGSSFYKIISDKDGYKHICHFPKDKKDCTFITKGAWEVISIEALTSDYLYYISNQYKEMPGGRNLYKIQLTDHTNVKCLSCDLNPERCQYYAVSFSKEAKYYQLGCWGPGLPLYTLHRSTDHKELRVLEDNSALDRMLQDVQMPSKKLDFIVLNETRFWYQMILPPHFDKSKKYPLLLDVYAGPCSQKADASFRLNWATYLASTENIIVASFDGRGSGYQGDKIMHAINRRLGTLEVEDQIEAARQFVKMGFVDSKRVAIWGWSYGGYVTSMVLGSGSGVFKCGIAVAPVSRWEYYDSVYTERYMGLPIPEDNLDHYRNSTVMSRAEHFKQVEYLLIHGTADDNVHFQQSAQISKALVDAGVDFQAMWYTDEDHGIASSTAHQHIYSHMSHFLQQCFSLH

The structures appear in SMILES notation.

The target in the test is DPP-4 (Mus musculus, UniProt P28843). Particulars: wild-type or eNOS-deficient mice treated or not treated with sitagliptin; FIG. 3b.

Take `N[C@@H](CC(=O)N1CCn2c(nnc2C(F)(F)F)C1)Cc1cc(F)c(F)cc1F` [sitagliptin]: the “protein concentration of inactivated IGF-1 bound to IGFBP3 in plasma” value is “reduced”.
